The conditions of the data set: PAMPA.

Counter-ions that a name gives are not always drawn.

Take `CN1CC[C@]23c4c5ccc(O)c4O[C@H]2[C@@H](O)C=C[C@H]3[C@H]1C5` [Morphine, morphine sulfate]: the “Ability to cross the dodecane barrier” value is reported as “unable to cross the barrier”.

(Values after publication PMC4078735 (2013).)
